Only a part is listed here, and it is no random draw. Active and inactive are the calls of the source. Rule for the calls, unless noted: active = hit-call score of the fitted dose curve at least 0.9, where 1 is the maximum; inactive = score below 0.9.

For one compound, outcome and AC50 results are on record in PubChem BioAssay (EPA / NIEHS).

The nature of experiment [1]: CCTE_Deisenroth_5AR_NBTE_acceptor: CCTE's 5alpha-reductase NanoBRET Target Engagement Assay - Autofluorescence Screen, Deisenroth Lab (AID 2284321).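 Note: compound fluorescence in the acceptor channel under 460 nm excitation flags autofluorescence artifacts.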 Particulars: actives raise or lower the signal. The method, then: CCTE_Deisenroth_5AR NBTE (5alpha-reductase NanoBRET Target Engagement Assay) is a cell-based, single-readout assay that uses HEK293T, a human kidney cell line, with measurements taken at 5 hours after chemical dosing in a 384 well plate. This assay includes a primary and secondary screen as well as an autofluorscence screen.CCTE_Deisenroth_5AR NBTE_acceptor is one of four assay components measured from the CCTE_Deisenroth_5AR NBTE assay. It is designed to make measurements of resonant fluorescence generated by bioluminescent energy transfer to a target fluorophore, as detected by fluorescence intensity emission signals using spectrometry technology.Data from the assay component CCTE_Deisenroth_5AR NBTE_acceptor was analyzed into 1 assay endpoint. This assay endpoint, CCTE_Deisenroth_5AR NBTE_acceptor, was analyzed with bidirectional fitting relative to DMSO as the negative control and baseline of activity. Using a type of inducible reporter, gain or loss-of-signal activity can be used to understand changes in the acceptor fluorescence as related to 5alpha-reductase catalytic function. Furthermore, this assay endpoint can be referred to as a secondary readout, because this assay has produced multiple assay endpoints where this one serves an artifact detection function. […]
On the technique in general: BRET reads energy transfer from a luciferase to a nearby fluorophore.

The test system of another experiment is SRD5A2 (gene 6716). Description: CCTE_Deisenroth_5AR_NBTE_ratio: CCTE's 5alpha-reductase NanoBRET Target Engagement Assay - Ratio, Deisenroth Lab (AID 2284322). Particulars: actives raise or lower the signal. The method, boiled down: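 HEK293T transiently expressing SRD5A2-NanoLuc; cells exposed to chemical (8-point, 10 nM - 29.9 uM) for 5 h total, testosterone tracer added for final 2 h. NanoBRET acceptor/donor ratio (650/460 nm), bidirectional fit vs DMSO.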

A further experiment concerns SERPINA7 (gene 6906). The experiment in a line: CCTE_GLTED_hTBG: CCTE's human Thyroxine-binding Globulin (TBG) Inhibition Assay, Great Lakes Toxicology and Ecology Division (GLTED) Lab (AID 2284343; active = hit-call score of the fitted dose curve at least 0.9, where 1 is the maximum;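 note: active chemicals lower fluorescence versus DMSO baseline by displacing probe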). The method, boiled down:
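hTBG + test chem, 2 h; ANSA probe displacement; fluorescence readout ex380/em475; DMSO = neg ctrl/baseline; cell-free.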

Take `Cc1cccc([N+](=O)[O-])c1[N+](=O)[O-]`: the compound was classed as inactive (in experiment [1]; in the experiment on SRD5A2 (gene 6716)). Moreover, in the experiment on SERPINA7 (gene 6906), the AC50 (in general, the midpoint of the concentration-response curve, whichever way the signal moves) was active: 35.8 µM.
